Measurements taken from patent US9273014B2 (dated 2016).

Protein sequences, listed by entry. Tags and fused reporters are not part of them. Residues count along the entry.
UniProt P46531, 19-2555 limits assumed: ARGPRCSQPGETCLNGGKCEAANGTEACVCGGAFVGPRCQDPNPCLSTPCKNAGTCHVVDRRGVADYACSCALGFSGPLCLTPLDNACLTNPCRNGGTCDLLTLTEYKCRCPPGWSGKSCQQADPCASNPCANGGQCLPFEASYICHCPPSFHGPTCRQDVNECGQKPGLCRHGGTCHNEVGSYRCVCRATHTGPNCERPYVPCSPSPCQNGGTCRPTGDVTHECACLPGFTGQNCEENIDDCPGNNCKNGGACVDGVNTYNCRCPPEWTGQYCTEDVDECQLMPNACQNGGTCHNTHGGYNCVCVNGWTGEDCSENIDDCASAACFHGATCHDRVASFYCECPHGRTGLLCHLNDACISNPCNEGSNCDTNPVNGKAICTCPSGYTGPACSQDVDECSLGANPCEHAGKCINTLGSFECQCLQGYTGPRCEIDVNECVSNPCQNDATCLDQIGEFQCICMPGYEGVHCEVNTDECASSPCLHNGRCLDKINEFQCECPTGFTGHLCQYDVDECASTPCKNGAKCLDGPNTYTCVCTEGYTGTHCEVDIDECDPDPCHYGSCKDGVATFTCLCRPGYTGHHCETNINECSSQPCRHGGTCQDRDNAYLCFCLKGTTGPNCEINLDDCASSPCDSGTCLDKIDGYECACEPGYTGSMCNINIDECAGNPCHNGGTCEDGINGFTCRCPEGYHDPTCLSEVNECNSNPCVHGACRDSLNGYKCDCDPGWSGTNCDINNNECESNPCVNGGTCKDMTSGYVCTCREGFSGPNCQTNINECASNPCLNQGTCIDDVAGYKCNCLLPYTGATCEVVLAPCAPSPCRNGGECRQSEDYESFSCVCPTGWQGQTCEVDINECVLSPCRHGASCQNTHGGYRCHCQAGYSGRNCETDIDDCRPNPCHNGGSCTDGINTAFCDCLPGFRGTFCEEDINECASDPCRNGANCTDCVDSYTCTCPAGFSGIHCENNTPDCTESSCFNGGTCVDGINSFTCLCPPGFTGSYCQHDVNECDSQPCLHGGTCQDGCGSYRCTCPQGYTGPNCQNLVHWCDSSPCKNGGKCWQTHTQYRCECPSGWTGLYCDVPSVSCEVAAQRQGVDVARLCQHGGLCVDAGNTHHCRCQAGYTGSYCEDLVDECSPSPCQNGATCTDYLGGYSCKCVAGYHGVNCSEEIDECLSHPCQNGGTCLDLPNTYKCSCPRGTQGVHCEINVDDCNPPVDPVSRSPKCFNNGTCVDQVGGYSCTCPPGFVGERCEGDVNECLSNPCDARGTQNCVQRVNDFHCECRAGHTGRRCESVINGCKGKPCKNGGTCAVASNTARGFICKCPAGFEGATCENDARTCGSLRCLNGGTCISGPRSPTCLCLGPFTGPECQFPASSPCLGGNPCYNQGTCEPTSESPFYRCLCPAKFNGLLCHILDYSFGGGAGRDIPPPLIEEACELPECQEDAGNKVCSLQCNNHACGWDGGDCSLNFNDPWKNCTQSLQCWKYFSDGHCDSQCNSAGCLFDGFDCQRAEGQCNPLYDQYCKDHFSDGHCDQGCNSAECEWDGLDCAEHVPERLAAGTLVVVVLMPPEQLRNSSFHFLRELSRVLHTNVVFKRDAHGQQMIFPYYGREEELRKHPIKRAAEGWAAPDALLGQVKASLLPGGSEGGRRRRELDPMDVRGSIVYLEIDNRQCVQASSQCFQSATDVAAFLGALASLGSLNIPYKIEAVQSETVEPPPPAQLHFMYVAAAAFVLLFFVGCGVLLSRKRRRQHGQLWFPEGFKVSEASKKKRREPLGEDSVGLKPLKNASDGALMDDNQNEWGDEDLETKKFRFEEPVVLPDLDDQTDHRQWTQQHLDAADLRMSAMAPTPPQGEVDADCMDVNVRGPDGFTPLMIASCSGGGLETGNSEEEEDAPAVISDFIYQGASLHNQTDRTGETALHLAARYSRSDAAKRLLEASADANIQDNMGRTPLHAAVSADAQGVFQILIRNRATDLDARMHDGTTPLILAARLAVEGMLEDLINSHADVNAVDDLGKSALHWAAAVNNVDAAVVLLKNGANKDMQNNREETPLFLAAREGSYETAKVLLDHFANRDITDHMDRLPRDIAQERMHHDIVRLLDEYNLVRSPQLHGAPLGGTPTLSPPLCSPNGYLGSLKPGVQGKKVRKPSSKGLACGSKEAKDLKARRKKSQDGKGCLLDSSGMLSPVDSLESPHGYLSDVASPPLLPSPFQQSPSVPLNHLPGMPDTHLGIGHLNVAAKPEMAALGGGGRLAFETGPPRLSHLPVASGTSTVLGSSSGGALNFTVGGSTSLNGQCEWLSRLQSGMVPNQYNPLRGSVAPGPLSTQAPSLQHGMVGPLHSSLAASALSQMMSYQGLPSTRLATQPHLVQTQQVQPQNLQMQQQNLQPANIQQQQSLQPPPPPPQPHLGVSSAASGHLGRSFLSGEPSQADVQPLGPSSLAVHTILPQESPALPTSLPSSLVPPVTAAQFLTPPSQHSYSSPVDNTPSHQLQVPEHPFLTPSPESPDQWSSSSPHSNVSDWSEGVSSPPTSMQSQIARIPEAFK
UniProt Q9UM47, 40-2321 limits assumed: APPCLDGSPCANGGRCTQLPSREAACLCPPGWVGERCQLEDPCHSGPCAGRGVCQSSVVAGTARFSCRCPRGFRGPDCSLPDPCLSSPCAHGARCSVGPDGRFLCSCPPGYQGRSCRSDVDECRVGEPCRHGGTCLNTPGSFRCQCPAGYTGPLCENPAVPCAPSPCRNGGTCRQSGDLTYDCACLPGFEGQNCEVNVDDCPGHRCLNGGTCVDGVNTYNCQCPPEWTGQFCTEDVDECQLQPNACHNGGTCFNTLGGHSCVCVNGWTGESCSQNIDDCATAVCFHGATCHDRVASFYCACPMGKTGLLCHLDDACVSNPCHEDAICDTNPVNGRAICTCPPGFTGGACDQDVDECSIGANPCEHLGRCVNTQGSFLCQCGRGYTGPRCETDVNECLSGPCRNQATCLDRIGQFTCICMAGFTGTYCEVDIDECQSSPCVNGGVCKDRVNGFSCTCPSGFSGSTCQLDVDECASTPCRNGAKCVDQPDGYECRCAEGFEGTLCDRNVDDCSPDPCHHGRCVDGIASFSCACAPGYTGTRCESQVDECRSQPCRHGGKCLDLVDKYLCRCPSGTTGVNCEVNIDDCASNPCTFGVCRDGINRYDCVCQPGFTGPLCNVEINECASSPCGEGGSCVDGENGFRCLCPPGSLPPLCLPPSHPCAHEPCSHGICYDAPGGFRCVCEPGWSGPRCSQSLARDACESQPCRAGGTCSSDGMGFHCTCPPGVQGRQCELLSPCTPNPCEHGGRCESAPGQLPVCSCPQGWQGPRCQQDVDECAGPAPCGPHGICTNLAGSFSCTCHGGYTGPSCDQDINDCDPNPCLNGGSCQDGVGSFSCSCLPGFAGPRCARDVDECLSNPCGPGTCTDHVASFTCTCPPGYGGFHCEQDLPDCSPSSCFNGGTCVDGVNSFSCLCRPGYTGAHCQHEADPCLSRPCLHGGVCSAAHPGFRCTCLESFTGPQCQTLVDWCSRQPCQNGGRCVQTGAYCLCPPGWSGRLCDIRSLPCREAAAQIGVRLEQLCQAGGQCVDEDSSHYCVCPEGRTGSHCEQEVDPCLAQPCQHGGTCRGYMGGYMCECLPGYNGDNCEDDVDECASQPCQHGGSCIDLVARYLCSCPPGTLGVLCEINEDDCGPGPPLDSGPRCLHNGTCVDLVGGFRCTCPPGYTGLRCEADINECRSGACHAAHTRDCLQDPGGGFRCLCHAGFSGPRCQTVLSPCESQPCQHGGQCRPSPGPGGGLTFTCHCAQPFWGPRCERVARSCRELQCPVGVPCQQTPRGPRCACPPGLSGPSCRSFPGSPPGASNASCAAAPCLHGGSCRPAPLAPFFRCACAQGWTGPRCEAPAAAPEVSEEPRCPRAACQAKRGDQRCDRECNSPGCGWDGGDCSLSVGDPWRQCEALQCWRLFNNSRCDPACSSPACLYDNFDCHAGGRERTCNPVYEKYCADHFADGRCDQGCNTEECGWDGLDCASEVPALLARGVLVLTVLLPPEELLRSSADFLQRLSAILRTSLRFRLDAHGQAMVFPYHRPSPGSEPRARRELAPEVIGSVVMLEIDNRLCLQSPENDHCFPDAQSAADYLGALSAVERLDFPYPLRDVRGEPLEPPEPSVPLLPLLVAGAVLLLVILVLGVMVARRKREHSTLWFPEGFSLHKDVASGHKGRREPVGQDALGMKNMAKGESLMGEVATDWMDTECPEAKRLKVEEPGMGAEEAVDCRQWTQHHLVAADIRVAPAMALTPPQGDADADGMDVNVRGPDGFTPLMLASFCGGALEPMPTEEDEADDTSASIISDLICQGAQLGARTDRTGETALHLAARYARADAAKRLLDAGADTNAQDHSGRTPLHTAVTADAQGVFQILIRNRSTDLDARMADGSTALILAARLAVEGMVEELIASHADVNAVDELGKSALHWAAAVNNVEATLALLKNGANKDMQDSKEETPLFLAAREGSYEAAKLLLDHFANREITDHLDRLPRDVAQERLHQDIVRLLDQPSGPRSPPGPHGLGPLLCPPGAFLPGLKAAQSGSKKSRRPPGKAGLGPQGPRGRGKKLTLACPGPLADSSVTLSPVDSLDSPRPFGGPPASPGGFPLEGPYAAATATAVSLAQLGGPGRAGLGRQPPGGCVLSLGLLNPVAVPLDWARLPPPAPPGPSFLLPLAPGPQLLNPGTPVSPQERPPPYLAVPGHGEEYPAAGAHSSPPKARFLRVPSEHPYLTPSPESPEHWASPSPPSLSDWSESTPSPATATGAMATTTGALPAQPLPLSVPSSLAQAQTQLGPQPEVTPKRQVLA

How the values were obtained:
human Notch 1 = human Notch 1 (Homo sapiens, UniProt P46531); conditions: read-out: Notch 1 (IC50); HeLa cells co-transfected with truncated Notch 1 and CBF1 luciferase reporter; 18 hours incubation
human Notch 3 = human Notch 3 (Homo sapiens, UniProt Q9UM47); assay: Notch-CBF1 Transactivation Assay (Notch 3); type: cell-based; conditions: read-out: Notch 3 (IC50); HeLa cells co-transfected with truncated Notch 3 and CBF1 luciferase reporter; 18 hours incubation

| Compound | pIC50 (human Notch 1) | pIC50 (human Notch 3) |
| --- | --- | --- |
| Cc1cccc2c1NC(=O)[C@@H](NC(=O)[C@H](CCC(F)(F)F)[C@H](CCC(F)(F)F)C(N)=O)N=C2c1cccc(Cl)c1 [Example 7, (2R,3S)—N-((3S)-5-(3-Chlorophenyl)-9-methyl-2-oxo-2,3-dihydro-1H-1,4-benzodiazepin-3-yl)-2,3-bis(3,3,3-trifluoropropyl)succinamide] | 8.36 | 8.36 |
| Cc1cccc(C2=N[C@H](NC(=O)[C@H](CCC(F)(F)F)[C@H](CCC(F)(F)F)C(N)=O)C(=O)Nc3c(OC4CC4)cccc32)c1 [Example 15, (2R,3S)—N-((3S)-9-(Cyclopropyloxy)-5-(3-methylphenyl)-2-oxo-2,3-dihydro-1H-1,4-benzodiazepin-3-yl)-2,3-bis(3,3,3-trifluoropropyl)succinamide] | 8.36 | 8.36 |
| COc1cccc2c1NC(=O)[C@@H](NC(=O)[C@H](CCC(F)(F)F)[C@H](CCC(F)(F)F)C(N)=O)N=C2c1ccc(Cl)cc1 [Example 27, (2R,3S)—N-((3S)-5-(4-Chlorophenyl)-9-methoxy-2-oxo-2,3-dihydro-1H-1,4-benzodiazepin-3-yl)-2,3-bis(3,3,3-trifluoropropyl)succinamide] | 8.55 | 8.57 |
| NC(=O)[C@@H](CCC(F)(F)F)[C@@H](CCC(F)(F)F)C(=O)N[C@H]1N=C(c2ccc(CO)cc2)c2ccccc2NC1=O [Example 30, (2R,3S)—N-((3S)-5-(4-(Hydroxymethyl)phenyl)-2-oxo-2,3-dihydro-1H-1,4-benzodiazepin-3-yl)-2,3-bis(3,3,3-trifluoropropyl)succinamide] | 8.37 | 8.38 |
| Cc1cccc(C2=N[C@H](NC(=O)[C@H](CCC(F)(F)F)[C@H](CCC(F)(F)F)C(N)=O)C(=O)Nc3ccccc32)c1 [Example 32, (2R,3S)—N-((3S)-5-(3-Methylphenyl)-2-oxo-2,3-dihydro-1H-1,4-benzodiazepin-3-yl)-2,3-bis(3,3,3-trifluoropropyl)succinamide] | 8.19 | 8.21 |
| NC(=O)[C@@H](CCC(F)(F)F)[C@@H](CCC(F)(F)F)C(=O)N[C@H]1N=C(c2cccc(F)c2)c2cccc(CO)c2NC1=O [Example 37, (2R,3S)—N-((3S)-5-(3-Fluorophenyl)-9-(hydroxymethyl)-2-oxo-2,3-dihydro-1H-1,4-benzodiazepin-3-yl)-2,3-bis(3,3,3-trifluoropropyl)succinamide] | 8.21 | – |

pIC50: −log10 of the molar value.
